Earlier results, collected in patent publication US20050159359A1, “Methods and compositions for derepression of IAP-inhibited caspase” (The Burnham Institute, priority 2001, published 2005).

Biological target: caspase-3 and -7
Details: reported; read-out: Ki for inhibition of caspase-3 and -7; cited from earlier work

Substance	Ki
XIAP: X chromosome linked IAP, human inhibitor of apoptosis protein	0.2 to 10 nM
cIAP1: cellular IAP protein, human inhibitor of apoptosis protein	0.2 to 10 nM
